# From patent publication US10918714B2, “Human iNKT cell activation using glycolipids with altered glycosyl groups” (Academia Sinica, priority 2013, dated 2021)
# The chains behind the UniProt entries cited, without tags or fusion partners. Residues count along the entry.
# UniProt P11609, 19-305 limits assumed: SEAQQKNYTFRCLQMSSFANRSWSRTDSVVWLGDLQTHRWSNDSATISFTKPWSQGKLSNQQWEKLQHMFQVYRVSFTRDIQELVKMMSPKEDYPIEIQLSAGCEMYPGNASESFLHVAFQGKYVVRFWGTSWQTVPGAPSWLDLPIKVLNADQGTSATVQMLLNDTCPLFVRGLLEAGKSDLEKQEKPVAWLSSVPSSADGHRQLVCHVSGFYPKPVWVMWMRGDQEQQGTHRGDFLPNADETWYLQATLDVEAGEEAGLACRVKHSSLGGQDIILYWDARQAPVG
# UniProt P11609, 22-305 limits assumed: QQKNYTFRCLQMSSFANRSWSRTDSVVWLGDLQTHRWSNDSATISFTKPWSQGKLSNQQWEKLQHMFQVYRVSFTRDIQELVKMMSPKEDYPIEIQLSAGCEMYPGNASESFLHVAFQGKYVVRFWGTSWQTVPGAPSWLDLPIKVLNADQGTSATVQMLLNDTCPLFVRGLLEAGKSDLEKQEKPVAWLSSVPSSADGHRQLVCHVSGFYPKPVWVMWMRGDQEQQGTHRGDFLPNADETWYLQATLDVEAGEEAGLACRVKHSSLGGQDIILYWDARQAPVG
# UniProt A0A0B4J1J9, 22-114 limits assumed: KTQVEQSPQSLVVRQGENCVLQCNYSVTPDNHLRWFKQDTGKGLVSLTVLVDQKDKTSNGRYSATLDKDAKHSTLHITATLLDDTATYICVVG
# UniProt P01887, 21-119 partner limits assumed: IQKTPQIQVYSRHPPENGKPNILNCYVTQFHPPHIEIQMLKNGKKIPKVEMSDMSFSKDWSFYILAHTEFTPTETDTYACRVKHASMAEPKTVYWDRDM
# Assays:
# Jα18 knockout mice = assay: Murine serum cytokine/chemokine secretion after i.v. glycolipid, Jα18 knockout mice; settings: Jα18 KO mice, 1 μg/mouse
# Description: All the glycolipids were dissolved in 100% DMSO at a concentration of 1-2 mg/ml. For in vivo experiments, all compounds were diluted to 10 μg/ml in saline just before injection of 100 μl diluted glycolipid or 100 μl 1% DMSO into mice. Pathogen-free C57BL/6 female mice aged 6-12 weeks were obtained from the National Laboratory Animal Center (Taipei, Taiwan). Jα18 knockout (KO) B6 mice were the gifts from Dr. Masaru Taniguchi (RIKEN Research Center for Allergy and Immunology, Yokohama, Japan). All the mice were maintained in pathogen free vivarium of Institute of Cellular and Organismic Biology, Academia Sinica (Taipei, Taiwan).
# B6 WT or Jα18 KO mice were intravenously injected with vehicle or glycolipids at 0.1 or 1 μg/mouse. Serum was collected at 2 and 18 h after injection for measurement of cytokines/chemokines by Beadlyte® Mouse Cytokine kit (Millipore, N.Y.) and read by a Luminex® 200™ system (Luminex, Austin, Tex.).
# [1] = test system: Jα18 KO mouse splenocytes; assay: FACS analyses of Jα18 KO mouse immune cells (splenocytes) after glycolipid stimulation; settings: Jα18 KO mice, 3 days after i.v. injection, 1 μg/mouse
# Description: B6 WT or Jα18 KO mice treated with specific glycolipid (1 μg/mouse) or vehicle (1% DMSO in PBS) were sacrificed at 72 hr post-injection and their spleens were harvested. After pressing spleens through 70 um strainer and lysis of erythrocytes, the nucleated cells were resuspended in PBS buffer containing azide (0.05%) and stained with antibodies recognizing the indicated cell surface antigens for 30 min at 4° C. After washing, the splenocytes were subjected to FACS analysis. The antibodies against CD3, CD4, CD8β, CD11c, CD80, and CD86 were obtained from BD Bioscience-Pharmingen.
# mCD1d dimer = mCD1d dimer (Mus musculus, UniProt P11609); assay: Binding strength of the binary complex between mCD1d and glycolipid (L363 antibody ELISA); settings: KD from Scatchard transformation (FIG. 10D)
# Description: Different concentrations of mCD1d^di-glycolipid complexes coated on the ELISA plate were incubated with the saturated amounts of L363 antibody (BioLegend) conjugated with biotin, followed by streptavidin-HRP detection and ELISA measurement. The KD between L363 antibody and the indicated mCD1d^di-glycolipid complex was calculated from the linear regression of the Scatchard transformation of the L363 antibody binding curve using GraphPad Prism software. […] Next, the KD of the binary complex was determined as follows. Different concentrations of glycolipids were incubated with fixed amounts of mCD1d dimer at 37° C. overnight, and then mCD1d^di-glycolipid complexes were coated on the 96 well ELISA plate at 4° C. overnight. After washing and blocking with BSA at room temperature (RT) for 1 hr, L363 antibody conjugated with biotin was added for 30 min at RT, followed by incubation with streptavidin-HRP for 30 min at RT and detection with an ELSIA reader. KD values of the binary complex were calculated from the linear regression of the Scatchard transformation of the L363 antibody binding curve.
# mouse iNKT TCR = mouse iNKT TCR (Mus musculus, UniProt A0A0B4J1J9+P11609); assay: Binding avidity of mCD1d-loaded glycolipids to Vα14+ iNKT cells (ternary interaction); settings: mCD1d complex (FIG. 3C)
# Description: Briefly, murine CD1d:Ig dimer (BD Biosciences PharMingen, San Diego, Calif.) was loaded with glycolipids at a molar ratio of 1:10 or vehicle for overnight at 37° C. Murine 1.2 Vα14^+ iNKT cells were incubated with various doses of dimer-glycolipid complex in buffer containing azide (0.05%) for 30 min at 4° C. These cells were then stained with anti-mouse IgG1-PE mAb (A85-1) for another 30 min at 4° C., followed by washing, fixation with 4% paraformaldehyde (PFA), and the bound mCD1d dimer complexes were detected by flow cytometry. The binding curve and linear fit of the Scatchard transformation were plotted by Graphpad Prism software.
# B6 wild type mice = settings: previously reported (ref 19); cited from earlier work
structure (smiles),measurement,setting,value
CCCCCCCCCCCCCC[C@@H](O)[C@@H](O)[C@H](CO[C@H]1O[C@H](CO)[C@H](O)[C@H](O)[C@H]1O)NC(=O)CCCCCCCCCCc1ccc(F)cc1,"secretion of chemokines including KC, MCP-1, IP-10 and MIG",Jα18 knockout mice,not
same,induction of cytokines,Jα18 knockout mice; sera 2 and 18 hr after injection,no induction of cytokines
same,CD11chi monocyte-derived DCs expansion and activation,[1],not
same,"total splenocytes, CD4+ T and CD8+ T cells",[1],No significant differences
same,binding avidity to mCD1d dimer relative to αGalCer,mCD1d dimer,20 fold
same,ternary interaction with iNKT TCR relative to mCD1d-7DW8-5-Glc complex,mouse iNKT TCR,10 fold
same,dosage sufficient for immune stimulation,B6 wild type mice,0.1 μg/mouse
